The conditions of data set [1]: 3 mg/mL, acetate salt, non-filtered.
The subject of data set [2] is release of IL-5 upon T cell activation. The experiment in a line: Fluorospot assay, IL-5 release (DK1-TCL01, US1-TCL01). It counts as cell-based, human. To be noted: head prints TCL-02 DK1; text: 25 TCL-01 DK1 lines.
Data set [3] relates to allergen specific T cells. As to the kind of experiment: T cell proliferation assay (72 h) on donor derived T cell lines (TCL02/TCL03). In kind it is cell-based, human.
Data set [4] has as its system release of IFN-γ upon T cell activation. The experiment in a line: Fluorospot assay, IFN-γ release (DK1-TCL01, US1-TCL01). In kind it is cell-based, human. To be noted: head prints TCL-02 DK1; 17 TCL-01 DK1 lines.

SMILES strings stand for the structures.

`CSCC[C@H](NC(=O)CNC(=O)[C@H](CCCCN)NC(=O)[C@H](CCC(=O)O)NC(=O)[C@@H](NC(=O)[C@H](CC(C)C)NC(=O)[C@H](Cc1ccccc1)NC(=O)[C@H](CCCNC(=N)N)NC(=O)[C@H](Cc1ccccc1)NC(=O)[C@H](CC(N)=O)NC(=O)[C@H](Cc1ccccc1)NC(=O)[C@@H]1CCCN1C(=O)CNC(=O)[C@H](CCC(N)=O)NC(=O)[C@H](CC(C)C)NC(=O)[C@@H]1CCCN1C(=O)[C@@H](N)CCC(=O)O)[C@@H](C)O)C(=O)N[C@@H](CCCCN)C(=O)N[C@@H](CC(N)=O)C(=O)N[C@H](C(=O)O)C(C)C` [peptide 216]: the “Visual inspection after 60 min pH 4.5” value in data set [1] (250 mM D-Mannitol and 25 mM sodium acetate, pH 4.5) is reported as “Hair”. Besides, in data set [1] (250 mM D-Mannitol and 25 mM sodium acetate, pH 4.5, after centrifugation), the “Visual inspection after centrifugation pH 4.5” value is on record as “Ok”. The “Visual inspection after 60 min pH 7” value in data set [1] (250 mM D-Mannitol and 25 mM sodium phosphate, pH 7.0) was “Gel-like surface ++”.

Turning to `CC(C)C[C@H](NC(=O)[C@@H]1CCCN1C(=O)[C@H](CCC(=O)O)NC(=O)[C@H](Cc1c[nH]c2ccccc12)NC(=O)[C@H](CCC(=O)O)NC(=O)[C@@H](N)CCC(=O)O)C(=O)N[C@H](C(=O)N[C@@H](CCCCN)C(=O)N[C@@H](CCCCN)C(=O)NCC(=O)N[C@@H](CC(N)=O)C(=O)N[C@H](C(=O)N[C@@H](Cc1c[nH]c2ccccc12)C(=O)N[C@@H](CCC(=O)O)C(=O)N[C@H](C(=O)O)C(C)C)C(C)C)[C@@H](C)O` [compound 120], the “IL-5-Fluorospotr % donor coverage (TCL-02 DK1)” value in data set [2] was 16.67%. Also, in data set [3] (T cell lines TCL-02 DK1, 30 donors, hit criteria SI>=2, CPM>=1000), the “Proliferation % donor coverage (TCL-02 DK1)” value is reported as 37.93%. Further, the “Proliferation strength (TCL-02 DK1)” value in data set [3] (T cell lines TCL-02 DK1, strength of response (average relative magnitude)) amounted to 5.00. Moreover, in data set [4], the “IFN-gamma % donor coverage (TCL-02 DK1)” value amounted to 4.00%.

On to `CSCC[C@H](NC(=O)CNC(=O)[C@H](CCCCN)NC(=O)[C@H](CCC(=O)O)NC(=O)[C@@H](NC(=O)[C@H](CC(C)C)NC(=O)[C@H](Cc1ccccc1)NC(=O)[C@H](CCCNC(=N)N)NC(=O)[C@H](Cc1ccccc1)NC(=O)[C@H](CC(N)=O)NC(=O)[C@H](Cc1ccccc1)NC(=O)[C@@H]1CCCN1C(=O)CNC(=O)[C@H](CCC(N)=O)NC(=O)[C@H](CC(C)C)NC(=O)[C@@H]1CCCN1C(=O)[C@@H](N)CCC(=O)O)[C@@H](C)O)C(=O)N[C@@H](CCCCN)C(=O)N[C@@H](CC(N)=O)C(=O)N[C@H](C(=O)O)C(C)C` [compound 29], for which, in data set [2], the “IL-5-Fluorospotr % donor coverage (TCL-02 DK1)” value worked out at 4.00%. In addition, the “IFN-gamma % donor coverage (TCL-02 DK1)” value in data set [4] was 0.00%.

These data come from US20180207228A1, “PEPTIDE COMBINATIONS AND USES THEREOF FOR TREATING GRASS ALLERGY” (ALK-Abelló A/S, priority 2015, published 2018).
